Measurements reported in patent US20260027108A1, “PHARMACEUTICAL COMPOSITION OF HETEROARYL DERIVATIVE AND MEDICAL USE THEREOF” (Haisco Pharmaceutical Group Co., Ltd., priority 2022, published 2026).

Test system: MDA-MB-436 cells
Test: MDA-MB-436 cell activity test (CellTiter-Glo, 7 days)
Conditions: read-out: MDA-MB-436 cell inhibitory activity IC50; 7 days incubation

CCc1cc2ncc(CN3CCN(c4ccc(NC(=O)C5CC5(F)F)nc4)CC3)cc2[nH]c1=O (single isomer, unassigned) [Compound 50]
IC50: 3 nM
